Assay results reported in patent publication US9243301B2 (priority 2006, dated 2016).

Protein sequences, listed by entry. Tags and fused reporters are not part of them. Lines headed by an entry give the natural chain unless they say otherwise; changes in a name come on top.
UniProt P35370: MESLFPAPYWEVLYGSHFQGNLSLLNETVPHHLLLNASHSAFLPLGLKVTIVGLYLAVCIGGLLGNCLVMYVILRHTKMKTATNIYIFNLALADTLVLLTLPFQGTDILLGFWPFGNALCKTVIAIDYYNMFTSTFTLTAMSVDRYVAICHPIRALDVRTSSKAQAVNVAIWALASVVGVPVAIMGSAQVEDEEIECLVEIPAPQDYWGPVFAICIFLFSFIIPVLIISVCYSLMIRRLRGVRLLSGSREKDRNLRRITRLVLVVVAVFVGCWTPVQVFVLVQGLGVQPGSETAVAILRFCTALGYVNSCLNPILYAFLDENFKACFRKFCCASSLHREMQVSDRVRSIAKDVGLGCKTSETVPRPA

Molecular target: ORL1 receptor (Rattus norvegicus, UniProt P35370)
Format: binding

Substance: Nociceptin [R14K15] 1-17 [“variant” TM]
- increase in binding ability for a nociceptive sensory afferent vis-à-vis natural nociceptin: 3- to 10 fold
